Sequences of proteins named here, by UniProt entry; tags and fusion partners are left off.
UniProt P51681, whole entry: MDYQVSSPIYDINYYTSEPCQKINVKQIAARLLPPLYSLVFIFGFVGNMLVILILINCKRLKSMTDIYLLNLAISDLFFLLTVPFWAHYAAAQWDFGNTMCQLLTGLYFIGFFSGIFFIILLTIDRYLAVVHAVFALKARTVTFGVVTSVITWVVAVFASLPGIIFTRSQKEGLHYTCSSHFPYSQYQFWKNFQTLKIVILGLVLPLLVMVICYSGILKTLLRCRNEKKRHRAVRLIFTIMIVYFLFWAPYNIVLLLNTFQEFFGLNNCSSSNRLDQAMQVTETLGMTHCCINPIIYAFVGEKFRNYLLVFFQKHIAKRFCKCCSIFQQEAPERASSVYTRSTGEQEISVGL

According to US20060205769A1, “Piperidine or 8-aza-bicyclo[3.2.1]oct-3-yl derivatives useful as modulators of chemokine receptor activity” (priority 2003, published 2006):

Target: recombinant human CCR5 receptor (Homo sapiens, UniProt P51681)
Experiment: in vitro radioligand binding assay: inhibition of binding of iodinated MIP-1α to membranes of CHO cells expressing CCR5 (scintillation proximity)
Settings: displacement of 0.1 nM iodinated MIP-1α; negative log (base 10) of IC50; average if tested more than once
Description: The ability of compounds to inhibit the binding of MIP-1α was assessed by an in vitro radioligand binding assay. Membranes were prepared from Chinese hamster ovary cells which expressed the recombinant human CCR5 receptor. These membranes were incubated with 0.1 nM iodinated MIP-1α, scintillation proximity beads and various concentrations of the compounds of the invention in 96-well plates. The amount of iodinated MIP-1α bound to the receptor was determined by scintillation counting. Competition curves were obtained for compounds and the concentration of compound which displaced 50% of bound iodinated MIP-1α was calculated (IC50).
In Table IV the results are presented as Pic50 values. A Pic50 value is the negative log (to base 10) of the IC50 result, so an IC50 of 1 μM (that is 1×10^−6M) gives a Pic50 of 6. If a compound was tested more than once then the data below is an average of the probative tests results.

| SMILES | Pic50 |
| --- | --- |
| CN1CCN(S(=O)(=O)CCC2CCN(CC[C@H](c3ccc(S(C)(=O)=O)cc3)c3cc(F)cc(F)c3)CC2)CC1 | 8.6 |
| CS(=O)(=O)c1ccc([C@@H](CCN2CCC(CCS(=O)(=O)N3CCC(F)CC3)CC2)c2cc(F)cc(F)c2)cc1 | 8.9 |
| CS(=O)(=O)c1ccc([C@@H](CCN2CCC(CCS(=O)(=O)N3CCCC3)CC2)c2cc(F)cc(F)c2)cc1 | 8.3 |
| CS(=O)(=O)c1ccc([C@@H](CCN2CCC(CCS(=O)(=O)N3CCOCC3)CC2)c2cc(F)cc(F)c2)cc1 | 8.0 |
| CCS(=O)(=O)N1CCN(S(=O)(=O)CCC2CCN(CC[C@H](c3ccc(S(C)(=O)=O)cc3)c3cc(F)cc(F)c3)CC2)CC1 | 9.2 |
